The values that follow come from PubChem BioAssay AID1778 (Sanford-Burnham Center for Chemical Genomics, 2009).

By UniProt entry, the sequences of proteins in these tests, tags left out.
UniProt P41145, whole entry: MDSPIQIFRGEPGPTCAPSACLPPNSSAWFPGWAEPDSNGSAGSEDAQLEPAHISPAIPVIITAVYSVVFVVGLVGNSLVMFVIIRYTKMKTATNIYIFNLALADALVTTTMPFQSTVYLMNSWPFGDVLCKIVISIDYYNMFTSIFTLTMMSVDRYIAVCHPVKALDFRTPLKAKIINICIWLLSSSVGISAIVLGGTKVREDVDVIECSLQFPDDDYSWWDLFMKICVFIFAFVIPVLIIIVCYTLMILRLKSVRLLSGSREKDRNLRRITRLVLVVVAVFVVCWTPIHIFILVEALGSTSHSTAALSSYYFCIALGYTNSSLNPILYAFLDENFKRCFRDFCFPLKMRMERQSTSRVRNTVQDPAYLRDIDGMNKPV

SMILES strings stand for the structures. The entries are a selection whose mix differs from that of the whole data set. Entries with a potency or affinity are not part of this list. The source made the active and inactive calls. Rule as the data show it: active = inhibition above about 50%; inactive = the rest.

This test concerns the target Kappa-type opioid receptor (Homo sapiens) (UniProt P41145). Nature of the test: KOR antagonists, beta-arrestin recruitment, cell-based, luminescence, uHTS (AID 1778). The note with it: antagonist mode, at 10 µM, stronger effect = higher value. (Recruitment of arrestin is a read-out of receptor activation apart from second messengers.)
The inhibition is the relative decrease from the control value, in per cent. Consider `CC(C)(C)OC(=O)N1CCC(N(C(=O)c2ccccc2)c2ccc(Cl)cc2)CC1`, for which the inhibition was inactive: 7.5%.

In the case of `N#Cc1ccc(C(=O)NCC2(N3CCCCC3)CCCCC2)cc1`, the inhibition is inactive: -37.1%.

For the compound `CCCN1CCC(Nc2cc(OC)cc(OC)c2)CC1`, the inhibition is inactive: -3.2%.

As to `c1ccc(CN2CCC(Nc3ccccc3)CC2)cc1`, the inhibition is inactive: -5.6%.

Take `CN(C)C1(CNC(=O)c2cccc(C#N)c2)CCCCC1`: the inhibition is inactive: -6.7%.

With `COc1ccc(C(=O)NCC2(N3CCOCC3)CCCCC2)cc1OC`, the inhibition was inactive: 16.5%.

`O=C(OC1CN2CCC1CC2)C1c2ccccc2C=Cc2ccccc21` (stereo unspecified): the inhibition was inactive: -9.3%.

Regarding `N/C(=N\O)c1c(N)no[n+]1[O-]`, the inhibition was inactive: 9.4%.

Take `CCOC(=O)N1CCC(Nc2ccc(C)cc2)CC1`: the inhibition was inactive: 5.5%.

Consider `CCCOc1ccc(C(=O)NCC2(N(C)C)CCCCC2)cc1`, for which the inhibition was inactive: 12.7%.

With `O=C(O)C1(Nc2ccccc2)CCN(Cc2ccccc2)CC1`, the inhibition is inactive: 9%.

As for `CC(C)(C)OC(=O)N1CCC(Nc2ccccc2)CC1`, the inhibition was inactive: 11.3%.

On to `CN1CCC(Nc2ccc(F)c(Cl)c2)CC1`, for which the inhibition was inactive: -3.2%.

Take `CCOc1ncccc1C(=O)NCC1(N2CCOCC2)CCCCC1`: the inhibition was inactive: -11.4%.

For the compound `CCCOc1ccc(C)cc1CN(CCCl)CCCl`, the inhibition is inactive: 14.4%.

Take `CN1CCC(Nc2ccc(Cl)cc2)CC1`: the inhibition is inactive: 13.1%.

Consider `CCC(CO)(C(=O)OC1CN2CCC1CC2)c1ccccc1` (stereo unspecified), for which the inhibition is inactive: 17.2%.

With `COc1cc(OC)cc(C(=O)NCC2(N3CCOCC3)CCCCC2)c1`, the inhibition is inactive: 16.4%.

Regarding `COc1cccc(C(=O)N(c2cc(C)cc(C)c2)C2CCN(C(=O)OC(C)(C)C)CC2)c1`, the inhibition is inactive: -20.7%.

For the compound `Fc1ccccc1NC1CCN(Cc2ccccc2)CC1`, the inhibition is inactive: -4.1%.

For the compound `COc1cc(OC)cc(C(=O)NCC2(N3CCCCC3)CCCCC2)c1`, the inhibition was inactive: 8.2%.

For the compound `CN(C)c1ccc(C(=O)NCC2(N3CCCCC3)CCCCC2)cc1`, the inhibition was inactive: 16.1%.

On to `CCN1CCC(Nc2cccc(F)c2)CC1`, for which the inhibition is inactive: -12%.

For `COc1ccc(NC2CCN(CCc3ccccc3)CC2)c(OC)c1`, the inhibition is inactive: -18.2%.

As for `O=C(NCC1(N2CCCCC2)CCCCC1)c1ccc(F)cc1`, the inhibition was inactive: -36.1%.

Consider `CCOc1ccc(C)cc1CN(CCCl)CCCl`, for which the inhibition was inactive: 6%.

Take `Cc1ccc(OCC(C)C)c(CN(CCCl)CCCl)c1`: the inhibition is inactive: 3.4%.

For the compound `COc1cc(C(=O)NCC2(N(C)C)CCCCC2)ccc1OC(F)F`, the inhibition was inactive: 2.3%.

For `CCOC(=O)N1CCC(Nc2cccc(C)c2)CC1`, the inhibition is inactive: 5.1%.

As to `CSc1ccccc1C(=O)NCC1(N2CCCCC2)CCCCC1`, the inhibition was inactive: -29.9%.

In the case of `O=C(NCC1(N2CCCCC2)CCCCC1)c1ccc(=O)[nH]c1`, the inhibition was inactive: 4.3%.

For the compound `CC(C)(C)OC(=O)N1CCC(N(C(=O)c2ccccc2)c2ccc(F)cc2)CC1`, the inhibition was inactive: -17.4%.

As for `COc1ccc(C(=O)NCC2(N3CCCCC3)CCCCC2)c(OC)c1OC`, the inhibition was inactive: -19.7%.

As to `COc1ccc(C(=O)NCC2(N3CCCCC3)CCCCC2)cc1`, the inhibition is inactive: 0%.

`CCOC(=O)N1CCC(Nc2ccc(OC)cc2)CC1`: the inhibition is inactive: -1.1%.

For the compound `O=C(OC1CN2CCC1CC2)C1c2ccccc2Oc2ccccc21` (stereo unspecified), the inhibition is inactive: -1.1%.

Consider `N#CC1(Nc2ccccc2)CCN(Cc2ccccc2)CC1`, for which the inhibition is inactive: -14.1%.

As for `O=C(NCC1(N2CCOCC2)CCCCC1)c1cc2ccccc2o1`, the inhibition was inactive: -12.1%.

For `Cc1cc(C)cc(N(C(=O)c2ccccc2)C2CCN(C(=O)OC(C)(C)C)CC2)c1`, the inhibition is inactive: 14.2%.

Regarding `COc1cc(OC)c(C(=O)NCC2(N(C)C)CCCCC2)cc1OC`, the inhibition is inactive: -49.3%.

Consider `CN(C)c1cccc(C(=O)NCC2(N3CCCCC3)CCCCC2)c1`, for which the inhibition is inactive: -13%.

For the compound `CC(C)c1ccc(NC2CCN(C(=O)OC(C)(C)C)CC2)cc1`, the inhibition was inactive: 9.4%.

Turning to `CCCOc1ccc(C(=O)NCC2(N(C)C)CCCCC2)cc1OC`, the inhibition was inactive: 21.3%.

With `O=C(NCC1(N2CCCCC2)CCCCC1)c1cccc([N+](=O)[O-])c1`, the inhibition is inactive: 0.8%.

In the case of `N#CC1(Nc2ccccc2)CCN(CCc2ccccc2)CC1`, the inhibition is inactive: -7.4%.

Turning to `CCN1CCC(Nc2ccc(Cl)cc2)CC1`, the inhibition is inactive: 8.6%.

For `O=C(NCC1(N2CCCCC2)CCCCC1)c1ccc(OC(F)F)cc1`, the inhibition is inactive: -20.5%.

Take `COc1ccc(NC2CCN(C(=O)OC(C)(C)C)CC2)cc1`: the inhibition was inactive: 8.6%.

Turning to `COc1cc(C(=O)NCC2(N3CCCCC3)CCCCC2)ccc1OC(F)F`, the inhibition is inactive: -6%.

For `O=C(NCC1(N2CCOCC2)CCCCC1)c1cc(=O)[nH]c2ccccc12`, the inhibition was inactive: -46.3%.

As for `O=C(NCC1(N2CCCCC2)CCCCC1)c1cccc(C(F)(F)F)c1`, the inhibition is inactive: -6%.
